From paper PMC11150675, “Simultaneous determination of multiple components in rat plasma by UPLC-MS/MS for pharmacokinetic studies after oral administration of Pogostemon cablin extract” (Frontiers in Pharmacology, 2024)

Assay: PK study in rats after single oral administration of Pogostemon cablin (PC) extract, plasma analysed by UPLC-MS/MS
Details: rat plasma, PC extract 4.0 g/kg single oral dose, n = 6

With β-rhamnocitrin the “AUC (0-∞)” value was 112.7 ± 38.4 ng·h/mL, the Cmax was 17.4 ± 4.5 ng/mL and the T1/2z was 4.8 ± 2.6 h.
